{
  "source": "patent US20030237103A1",
  "about": "“Methods and compositions for pharmacological and toxicological evaluation of test agents” (priority 2002, published 2003)",
  "key": {"[1]": {"system": "Sprague Dawley (CD-IGS) rats", "experiment": "Protein excretion in urine of gentamicin-treated rats", "details": "240 mg/Kg daily, 7 day protocol"}, "[2]": {"system": "Panel, parental and outbred (CD-IGS) rat strains", "experiment": "Clinical chemistry endpoints of gentamicin-treated vs. vehicle rats"}},
  "data": [
    {"substance": "gentamicin", "values": [
      {"measurement": "sensitivity to gentamicin (protein excretion in urine)", "setting": "[1]; majority (n=11) of CD-IGS rats", "value": "resistant"},
      {"measurement": "sensitivity to gentamicin (protein excretion in urine)", "setting": "[1]; subgroup (n=7) of CD-IGS rats", "value": "highly sensitive"},
      {"measurement": "increase in plasma BUN levels", "setting": "[2]; CD-IGS rats, gentamicin vs. vehicle", "value": 50, "unit": "%"},
      {"measurement": "nephrotoxic effects (plasma BUN increase) relative to other strains", "setting": "[2]; CD-IGS, on average", "value": "resistant"},
      {"measurement": "nephrotoxic effects (plasma BUN increase), strain sensitivity", "setting": "[2]; LEW and F344", "value": "most sensitive"},
      {"measurement": "nephrotoxic effects (plasma BUN increase), strain sensitivity", "setting": "[2]; WKY", "value": "most resistant"},
      {"measurement": "plasma BUN or creatinine concentration (indices of renal damage)", "setting": "[2]; all strains except WKY, 240 mg/Kg/day", "value": "statistically significant increase"}
    ]}
  ]
}
